Test system: TGx-DDI biomarker genes in TK6 cells
Assay: TGx-DDI transcriptomic biomarker classification by microarray
Format: cell-based, human
Conditions: reproducibility check with training-set agents, selected concentration

## oxamflatin
  clustering by 2DC using the TGx-DDI biomarker: clustered with the non-DNA-damaging agents

From patent US20180251824A1, “IN VITRO GENOTOXICITY ASSAY USING A TRANSCRIPTOMIC BIOMARKER WITH DIRECT DIGITAL COUNTING” (GEORGETOWN UNIVERSITY, priority 2017, published 2018)
